Target: T1, Single-stranded DNA binding protein (SSB), over-expressed recombinant (E. coli), P0AGE0
T1 chain: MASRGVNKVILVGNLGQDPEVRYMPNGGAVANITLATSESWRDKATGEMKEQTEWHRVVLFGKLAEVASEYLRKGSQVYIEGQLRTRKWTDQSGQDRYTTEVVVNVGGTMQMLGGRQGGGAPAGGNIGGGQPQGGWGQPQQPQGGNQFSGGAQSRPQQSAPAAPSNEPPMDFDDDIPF
Experiment: cross-linking
Conditions: remark: other sources report otherwise

B1: Single-stranded DNA binding protein (SSB), over-expressed recombinant, P0AGE0 1-178 (natural protein)
chain: MASRGVNKVILVGNLGQDPEVRYMPNGGAVANITLATSESWRDKATGEMKEQTEWHRVVLFGKLAEVASEYLRKGSQVYIEGQLRTRKWTDQSGQDRYTTEVVVNVGGTMQMLGGRQGGGAPAGGNIGGGQPQGGWGQPQQPQGGNQFSGGAQSRPQQSAPAAPSNEPPMDFDDDIPF
  stoichiometry N: 4
